Assay results as given in US20060079453A1, “Hla binding peptides and their uses” (priority 2002, published 2006).

What was measured:
Assay in all cases: biochemical
Type in all cases: binding
HLA-B*4001 = HLA-B*4001 (Homo sapiens, UniProt P01889, A65T/A93T/A95T/D138N/D98Y/E176V/E69K/N87E/Q56L/Q94N/R180L/S121R/S35A/S48T/T167S/V36M/W171L/Y33H/Y91S)
HLA-B*4402 = HLA-B*4402 (Homo sapiens, UniProt P01889, A223V/A65T/A93T/A95T/D201E/D98Y/E176V/E187L/E204Q/E69K/G107R/H137Y/K202T/L105A/L119I/N104T/N87E/Q56L/Q94N/R106L/R155S/R180D/S101N/S121R/S35A/S48T/T118I/V36M/W191S/Y140D/Y91S)
HLA-B*4002 = HLA-B*4002 (Homo sapiens, UniProt P01889, A65T/A93T/A95T/D138N/D201E/D98Y/E176V/E204Q/E69K/K202T/N87E/Q56L/Q94N/R180L/S48T/Y33H/Y91S)
HLA-B*4501 = HLA-B*4501 (Homo sapiens, UniProt P01889, A329T/A65T/A93T/A95T/C349S/D138N/D201E/D98Y/E176V/E187L/E204Q/E69K/H137Y/K202T/L119W/N87E/Q56L/Q94N/R155S/R180D/S121R/S35A/S48T/V127L/V306I/V36M/W191S/Y140L/Y33H/Y91S)
HLA-B*1801 = HLA-B*1801 (Homo sapiens, UniProt P01889, A329T/A93T/A95T/C349S/D201E/D54G/D98Y/E176V/E187T/E204Q/E69T/K202T/Q94N/R155S/R180L/S121R/V306I/Y140S/Y195H/Y33H/Y91S)
HLA-B*4403 = HLA-B*4403 (Homo sapiens, UniProt P01889, A223V/A65T/A93T/A95T/D201E/D98Y/E176V/E187L/E204Q/E69K/G107R/H137Y/K202T/L105A/L119I/N104T/N87E/Q56L/Q94N/R106L/R155S/R180L/S101N/S121R/S35A/S48T/T118I/V36M/W191S/Y140D/Y91S)

Row | SMILES | IC50 (HLA-B*4001) | IC50 (HLA-B*4402) | IC50 (HLA-B*4002) | IC50 (HLA-B*4501) | IC50 (HLA-B*1801) | IC50 (HLA-B*4403)
1 | CC(C)C[C@H](NC(=O)[C@H](CC(=O)O)NC(=O)[C@@H]1CCCN1C(=O)[C@H](Cc1ccccc1)NC(=O)[C@@H](NC(=O)[C@H](CO)NC(=O)[C@@H]1CCCN1C(=O)CNC(=O)[C@H](CCC(=O)O)NC(=O)[C@@H](N)CCC(=O)O)[C@@H](C)O)C(=O)O | 0.655 µM | 0.198 µM | 0.591 µM |  |  | 
2 | CC(C)C[C@H](NC(=O)[C@H](CC(C)C)NC(=O)[C@@H](NC(=O)[C@H](CCC(=O)O)NC(=O)[C@H](CCCCN)NC(=O)CNC(=O)[C@H](CCC(=O)O)NC(=O)[C@H](C)N)C(C)C)C(=O)O | 1.31 µM | 17.3 µM |  | 14.2 µM | 11.5 µM | 
3 | CC(C)[C@H](NC(=O)[C@H](CO)NC(=O)CNC(=O)[C@H](CC(N)=O)NC(=O)[C@H](CCC(N)=O)NC(=O)[C@@H]1CCCN1C(=O)[C@H](CCC(N)=O)NC(=O)[C@H](CS)NC(=O)[C@H](CCC(=O)O)NC(=O)[C@@H]1CCCN1)C(=O)O |  |  |  |  | 7.96 µM | 0.472 µM
4 | CC[C@H](C)[C@H](NC(=O)[C@H](CCC(=O)O)NC(=O)[C@@H]1CCCN1C(=O)[C@H](CCC(=O)O)NC(=O)[C@@H](N)CS)C(=O)N[C@@H](CCC(N)=O)C(=O)N[C@@H](CC(N)=O)C(=O)N[C@H](C(=O)N[C@H](C(=O)N[C@@H](Cc1ccc(O)cc1)C(=O)O)[C@@H](C)O)[C@@H](C)O |  |  |  |  | 1.46 µM | 14.6 µM
5 | CC(C)C[C@H](NC(=O)CNC(=O)[C@H](CC(C)C)NC(=O)[C@H](C)NC(=O)[C@H](CCC(=O)O)NC(=O)CNC(=O)[C@H](CCCNC(=N)N)NC(=O)[C@H](C)NC(=O)[C@H](CCC(=O)O)NC(=O)[C@@H](N)CC(C)C)C(=O)O | 0.184 µM | 2.28 µM | 0.277 µM |  |  | 
6 | CC[C@H](C)[C@H](NC(=O)[C@H](CCCCN)NC(=O)[C@H](CCC(=O)O)NC(=O)[C@@H](N)CCC(=O)O)C(=O)N[C@@H](Cc1c[nH]c2ccccc12)C(=O)N[C@@H](CCC(=O)O)C(=O)N[C@@H](CCC(=O)O)C(=O)N[C@@H](CC(C)C)C(=O)N[C@@H](CO)C(=O)N[C@@H](CCSC)C(=O)N[C@@H](CC(C)C)C(=O)O | 4.98 µM | 1.86 µM |  |  | 1.64 µM | 
7 | C[C@H](NC(=O)CNC(=O)[C@H](CCCNC(=N)N)NC(=O)[C@H](CCC(=O)O)NC(=O)[C@@H]1CCCN1)C(=O)N1CCC[C@H]1C(=O)N1CCC[C@H]1C(=O)N[C@@H](CO)C(=O)N[C@H](C(=O)N[C@@H](Cc1ccccc1)C(=O)O)[C@@H](C)O | 14.9 µM | 6.87 µM | 3.44 µM |  |  | 
8 | CC(C)C[C@H](NC(=O)[C@@H](NC(=O)[C@H](CO)NC(=O)[C@H](CO)NC(=O)[C@H](CO)NC(=O)[C@H](CO)NC(=O)[C@H](C)NC(=O)[C@H](C)NC(=O)[C@H](CCC(=O)O)NC(=O)[C@@H](N)CCC(N)=O)[C@@H](C)O)C(=O)O | 0.049 µM | 0.056 µM | 0.047 µM |  |  | 
9 | CC(C)C[C@H](NC(=O)[C@H](Cc1ccc(O)cc1)NC(=O)[C@H](CCC(=O)O)NC(=O)[C@@H](N)CO)C(=O)N[C@@H](CCC(N)=O)C(=O)N[C@@H](CC(C)C)C(=O)N[C@H](C(=O)N[C@@H](Cc1ccccc1)C(=O)O)C(C)C | 0.765 µM | 0.284 µM |  |  |  | 
10 | CC[C@H](C)[C@H](NC(=O)[C@H](CCC(=O)O)NC(=O)[C@@H]1CCCN1C(=O)[C@H](CCC(=O)O)NC(=O)[C@@H](N)CS)C(=O)N[C@@H](CCC(N)=O)C(=O)N[C@@H](CC(N)=O)C(=O)N[C@H](C(=O)N[C@H](C(=O)O)[C@@H](C)O)[C@@H](C)O |  |  |  |  |  | 0.12 µM
11 | CC[C@H](C)[C@H](NC(=O)[C@H](CCC(=O)O)NC(=O)[C@H](CCC(=O)O)NC(=O)[C@H](CC(C)C)NC(=O)[C@@H](NC(=O)[C@H](CCC(=O)O)NC(=O)[C@@H](N)Cc1ccccc1)[C@@H](C)O)C(=O)N[C@H](C(=O)NCC(=O)N[C@@H](Cc1ccc(O)cc1)C(=O)O)[C@@H](C)O |  |  |  |  |  | 1.68 µM
12 | CSCC[C@H](NC(=O)[C@H](CCC(=O)O)NC(=O)[C@H](C)N)C(=O)N[C@@H](CC(C)C)C(=O)NCC(=O)N[C@@H](CO)C(=O)N[C@H](C(=O)N[C@H](C(=O)NCC(=O)O)C(C)C)C(C)C |  |  |  |  |  | 0.0016 µM
13 | CC(C)C[C@H](NC(=O)[C@@H](NC(=O)[C@H](CO)NC(=O)[C@H](CCC(=O)O)NC(=O)[C@@H](N)CC(C)C)C(C)C)C(=O)N[C@@H](CCCNC(=N)N)C(=O)N[C@@H](CC(N)=O)C(=O)N[C@@H](CS)C(=O)N[C@@H](CCC(N)=O)C(=O)N[C@@H](CC(=O)O)C(=O)N[C@@H](Cc1ccccc1)C(=O)O | 5.41 µM | 0.209 µM |  |  |  | 
14 | C[C@H](NC(=O)CNC(=O)[C@H](CCCNC(=N)N)NC(=O)[C@H](CCC(=O)O)NC(=O)[C@@H]1CCCN1)C(=O)N1CCC[C@H]1C(=O)N1CCC[C@H]1C(=O)N[C@@H](CO)C(=O)N[C@H](C(=O)O)[C@@H](C)O | 4.74 µM | 1.12 µM | 7.68 µM | 7.77 µM |  | 
15 | CC(C)C[C@H](NC(=O)[C@H](CC(N)=O)NC(=O)[C@H](CCC(=O)O)NC(=O)CN)C(=O)N[C@@H](CC(N)=O)C(=O)N[C@@H](CC(C)C)C(=O)N[C@@H](CO)C(=O)N[C@@H](CS)C(=O)N[C@@H](Cc1c[nH]cn1)C(=O)N[C@@H](C)C(=O)N[C@@H](C)C(=O)O | 4.56 µM | 1.91 µM |  |  | 7.84 µM | 
16 | CC(C)C[C@H](NC(=O)[C@H](CO)NC(=O)[C@H](CCC(N)=O)NC(=O)[C@H](CS)NC(=O)[C@H](CC(=O)O)NC(=O)[C@H](CCC(=O)O)NC(=O)[C@@H](N)CO)C(=O)N[C@H](C(=O)N[C@@H](CCCNC(=N)N)C(=O)N[C@H](C(=O)N[C@H](C(=O)O)C(C)C)[C@@H](C)O)[C@@H](C)O | 4.32 µM | 0.943 µM | 0.311 µM |  |  | 
17 | CSCC[C@H](NC(=O)[C@H](CCCNC(=N)N)NC(=O)[C@@H]1CCCN1C(=O)CNC(=O)[C@H](CCC(=O)O)NC(=O)[C@H](CCC(=O)O)NC(=O)[C@@H](N)CCC(=O)O)C(=O)N[C@@H](Cc1ccccc1)C(=O)N1CCC[C@H]1C(=O)N[C@@H](CC(=O)O)C(=O)N[C@@H](CC(C)C)C(=O)O | 2.65 µM | 3.27 µM | 3.47 µM | 0.209 µM | 1.01 µM | 
18 | CC[C@H](C)[C@H](NC(=O)[C@H](Cc1ccccc1)NC(=O)[C@H](CC(C)C)NC(=O)[C@H](CCC(=O)O)NC(=O)[C@@H](N)CCC(N)=O)C(=O)N[C@@H](CO)C(=O)N[C@@H](CC(N)=O)C(=O)N[C@H](C(=O)N[C@H](C(=O)O)[C@@H](C)O)[C@@H](C)CC | 6.57 µM | 2.33 µM |  |  |  | 
19 | CC[C@H](C)[C@H](NC(=O)[C@H](C)NC(=O)[C@H](C)NC(=O)[C@H](CCC(N)=O)NC(=O)[C@H](Cc1ccccc1)NC(=O)[C@H](CCC(=O)O)NC(=O)[C@H](CO)NC(=O)[C@H](CCC(=O)O)NC(=O)[C@@H](N)CC(C)C)C(=O)N[C@@H](CO)C(=O)N[C@@H](CCCNC(=N)N)C(=O)N[C@@H](CCCCN)C(=O)N[C@@H](CCSC)C(=O)O |  |  |  |  |  | 0.014 µM
20 | CC(C)C[C@H](NC(=O)[C@@H](NC(=O)[C@H](CCCCN)NC(=O)[C@@H](NC(=O)[C@H](CCCCN)NC(=O)[C@H](CCCNC(=N)N)NC(=O)[C@H](CC(C)C)NC(=O)[C@H](CCC(=O)O)NC(=O)[C@@H](N)[C@@H](C)O)C(C)C)C(C)C)C(=O)O |  |  |  |  |  | 0.0025 µM
21 | CC[C@H](C)[C@H](NC(=O)[C@H](CCC(=O)O)NC(=O)[C@@H](N)CCCCN)C(=O)N[C@@H](CC(C)C)C(=O)N[C@@H](CC(=O)O)C(=O)N[C@@H](CCC(=O)O)C(=O)N[C@@H](C)C(=O)N[C@@H](Cc1ccc(O)cc1)C(=O)N[C@H](C(=O)N[C@@H](CCSC)C(=O)N[C@@H](C)C(=O)O)C(C)C | 0.252 µM | 11.5 µM |  | 0.123 µM | 0.731 µM | 
22 | CC[C@H](C)[C@H](NC(=O)[C@H](C)NC(=O)[C@H](C)NC(=O)[C@H](CCC(N)=O)NC(=O)[C@H](Cc1ccccc1)NC(=O)[C@H](CCC(=O)O)NC(=O)[C@@H](N)CO)C(=O)O [SEFQAAI] | 6.83 µM | 2.66 µM | 0.779 µM |  |  | 
23 | CC(C)C[C@H](NC(=O)CNC(=O)[C@H](CC(C)C)NC(=O)[C@H](C)NC(=O)[C@H](CCC(=O)O)NC(=O)CN)C(=O)N[C@H](C(=O)NCC(=O)N[C@@H](C)C(=O)N[C@@H](CCC(N)=O)C(=O)N[C@@H](C)C(=O)O)C(C)C | 4.29 µM | 3.57 µM |  |  | 0.877 µM | 
24 | CC(C)C[C@H](NC(=O)[C@@H]1CCCN1C(=O)[C@H](CCC(=O)O)NC(=O)[C@@H](NC(=O)[C@H](CC(C)C)NC(=O)[C@H](CCC(=O)O)NC(=O)[C@@H](N)[C@@H](C)O)C(C)C)C(=O)O [TELVEPL] | 14.2 µM | 8.85 µM |  |  |  | 
25 | CC(C)[C@H](NC(=O)[C@H](CCCCN)NC(=O)CNC(=O)CNC(=O)[C@H](CC(=O)O)NC(=O)[C@H](C)NC(=O)[C@H](Cc1c[nH]cn1)NC(=O)[C@H](Cc1ccc(O)cc1)NC(=O)[C@H](CCC(=O)O)NC(=O)[C@@H](N)[C@@H](C)O)C(=O)O | 5.25 µM | 2.91 µM |  | 1.57 µM |  | 
